From PubChem BioAssay AID375 (SRMLSC, 2006)
Only a part is listed here, and it is no random draw. Some results for these compounds are left out of this collection, so the calls shown say nothing about other tests. Activity calls are given as the source filed them. The rule behind the calls is not given here.

Chains of the proteins cited; added tags and fusions are not shown.
UniProt P9WIL5, whole entry: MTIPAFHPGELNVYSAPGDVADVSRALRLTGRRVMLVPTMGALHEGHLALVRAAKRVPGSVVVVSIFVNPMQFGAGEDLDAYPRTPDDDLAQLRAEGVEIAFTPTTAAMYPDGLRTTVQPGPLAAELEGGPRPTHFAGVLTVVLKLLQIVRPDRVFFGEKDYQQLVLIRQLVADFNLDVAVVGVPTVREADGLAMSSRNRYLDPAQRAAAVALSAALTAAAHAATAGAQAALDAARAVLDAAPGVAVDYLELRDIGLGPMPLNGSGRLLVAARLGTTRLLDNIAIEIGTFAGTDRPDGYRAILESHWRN

Target: Pantothenate synthetase (Mycobacterium tuberculosis (strain ATCC 25618 / H37Rv)) (UniProt P9WIL5)
Assay: Coupled enzyme confirmation of inhibitors against recombinant Mtb PanC (AID 375);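 note: 0% = full reaction with vehicle and 100% = no enzyme background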
Conditions: coupled enzyme assay, at 10 µM, active compounds read high

Row | SMILES | inhibition
1 | O=C(OC1CN2CCC1CC2)C(CO)(c1ccccc1)c1ccccc1 (stereo unspecified) | inactive: 5%
